These are literature values, as cited in patent publication US20230183323A1 (BROWN UNIVERSITY, priority 2020, published 2023).

Protein sequences, listed by entry. Tags and fused reporters are not part of them.
UniProt P06493, whole entry, species assumed: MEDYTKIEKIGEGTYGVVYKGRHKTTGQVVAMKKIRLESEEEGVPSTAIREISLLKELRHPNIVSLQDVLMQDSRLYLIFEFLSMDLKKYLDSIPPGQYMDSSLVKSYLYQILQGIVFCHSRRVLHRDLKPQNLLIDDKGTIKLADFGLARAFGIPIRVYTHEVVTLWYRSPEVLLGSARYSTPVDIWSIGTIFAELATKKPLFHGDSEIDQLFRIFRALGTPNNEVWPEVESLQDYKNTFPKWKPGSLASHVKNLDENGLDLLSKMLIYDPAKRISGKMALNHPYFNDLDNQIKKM
UniProt P11802, whole entry, species assumed: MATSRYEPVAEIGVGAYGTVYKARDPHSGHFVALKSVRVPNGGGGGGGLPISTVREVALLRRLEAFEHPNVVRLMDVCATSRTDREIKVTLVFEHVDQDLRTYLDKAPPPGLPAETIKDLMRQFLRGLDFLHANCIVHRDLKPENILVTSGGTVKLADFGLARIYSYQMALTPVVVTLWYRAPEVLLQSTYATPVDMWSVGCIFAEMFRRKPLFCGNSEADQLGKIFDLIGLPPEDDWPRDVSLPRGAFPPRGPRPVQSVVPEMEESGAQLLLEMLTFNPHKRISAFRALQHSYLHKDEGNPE

The target in data set [1] is CDK1 (Homo sapiens, UniProt P06493). More on the design: key to the marks not given beside the values. To be noted: cited from earlier work.
Data set [2] addresses CDK4 (Homo sapiens, UniProt P11802). More on the design: key to the marks not given beside the values. The conditions noted are these: cited from earlier work.

With `COc1ccc2c(c1)/C(=C/c1cnc[nH]1)C(=O)N2`, in data set [1], the “Inhibitory potency CDK1” value is “+++”. Also, the “Inhibitory potency CDK4” value in data set [2] is given as “++”.
